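Five compound concentrations were applied to cells in 96-well plates for 48 hours; endpoints were derived by simple linear interpolation of the resulting dose-response curve. GI50: concentration for 50% inhibition of growth. TGI is the concentration that stops growth completely.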
Assays:
Assay in all cases: growth of human tumour cells (NCI), 48 h
[1] = test system: SW-620 colon
[2] = test system: SK-MEL-5 melanoma
[3] = test system: RXF 393 renal
[4] = test system: DU-145 prostate
[5] = test system: SF-295 CNS
[6] = test system: KM12 colon
[7] = test system: CAKI-1 renal
[8] = test system: SR leukemia
[9] = test system: BT-549 breast
[10] = test system: OVCAR-5 ovarian
[11] = test system: K-562 leukemia
[12] = test system: SN12C renal
[13] = test system: SK-MEL-28 melanoma
[14] = test system: PC-3 prostate
[15] = test system: COLO 205 colon
[16] = test system: SK-OV-3 ovarian
[17] = test system: IGROV1 ovarian
[18] = test system: UACC-62 melanoma
[19] = test system: LOX IMVI melanoma
[20] = test system: HT29 colon
[21] = test system: EKVX NSCLC
[22] = test system: U251 CNS
[23] = test system: HCC-2998 colon
[24] = test system: CCRF-CEM leukemia
[25] = test system: MCF7 breast
[26] = test system: MDA-MB-231 breast
[27] = test system: NCI/ADR-RES ovarian
[28] = test system: HOP-92 NSCLC
[29] = test system: MOLT-4 leukemia
[30] = test system: 786-0 renal
[31] = test system: OVCAR-8 ovarian
[32] = test system: ACHN renal
[33] = test system: T-47D breast
[34] = test system: SNB-19 CNS
[35] = test system: UACC-257 melanoma
[36] = test system: NCI-H226 lung
[37] = test system: A498 renal
[38] = test system: OVCAR-3 ovarian
[39] = test system: HL-60(TB) leukemia
[40] = test system: HS 578T breast
[41] = test system: RPMI-8226 leukemia
[42] = test system: HCT-15 colon
[43] = test system: A549 NSCLC
[44] = test system: NCI-H522 lung
[45] = test system: OVCAR-4 ovarian
[46] = test system: SF-539 CNS
[47] = test system: SNB-75 CNS
[48] = test system: TK-10 renal
[49] = test system: NCI-H460 lung
[50] = test system: HOP-62 NSCLC
[51] = test system: SF-268 CNS
[52] = test system: HCT-116 colon
[53] = test system: M14 melanoma
[54] = test system: UO-31 renal
[55] = test system: SK-MEL-2 melanoma
[56] = test system: MDA-MB-435

**Q.** What does the source list for `CS(=O)(=O)c1ccc(-c2nc(NCc3cccs3)cc(C(F)(F)F)n2)cc1`?
**A.** GI50 [1]: > 100 µM; TGI [1]: > 100 µM; GI50 [2]: > 100 µM; TGI [2]: > 100 µM; GI50 [3]: 28.4 µM; TGI [3]: > 100 µM; GI50 [4]: 99.8 µM; TGI [4]: > 100 µM; GI50 [5]: 18.6 µM; TGI [5]: > 100 µM; GI50 [6]: > 100 µM; TGI [6]: > 100 µM; GI50 [7]: 33.7 µM; TGI [7]: > 100 µM; GI50 [8]: 32.7 µM; TGI [8]: > 100 µM; GI50 [9]: 94.7 µM; TGI [9]: > 100 µM; GI50 [10]: > 100 µM; TGI [10]: > 100 µM; GI50 [11]: 22.4 µM; TGI [11]: > 100 µM; GI50 [12]: > 100 µM; TGI [12]: > 100 µM; GI50 [13]: > 100 µM; TGI [13]: > 100 µM; GI50 [14]: 51.1 µM; TGI [14]: > 100 µM; GI50 [15]: > 100 µM; TGI [15]: > 100 µM; GI50 [16]: 19.4 µM; TGI [16]: 90.2 µM; GI50 [17]: 89.7 µM; TGI [17]: > 100 µM; GI50 [18]: 51.3 µM; TGI [18]: > 100 µM; GI50 [19]: 78.7 µM; TGI [19]: > 100 µM; GI50 [20]: > 100 µM; TGI [20]: > 100 µM; GI50 [21]: > 100 µM; TGI [21]: > 100 µM; GI50 [22]: 31 µM; TGI [22]: > 100 µM; GI50 [23]: > 100 µM; TGI [23]: > 100 µM; GI50 [24]: > 100 µM; TGI [24]: > 100 µM; GI50 [25]: > 100 µM; TGI [25]: > 100 µM; GI50 [26]: 17.2 µM; TGI [26]: > 100 µM; GI50 [27]: > 100 µM; TGI [27]: > 100 µM; GI50 [28]: 48 µM; TGI [28]: > 100 µM; GI50 [29]: > 100 µM; TGI [29]: > 100 µM; GI50 [30]: 55.8 µM; TGI [30]: > 100 µM; GI50 [31]: 97 µM; TGI [31]: > 100 µM; GI50 [32]: 27.6 µM; TGI [32]: > 100 µM; GI50 [33]: 6.27 µM; TGI [33]: > 100 µM; GI50 [34]: 43.2 µM; TGI [34]: > 100 µM; GI50 [35]: 49.5 µM; TGI [35]: > 100 µM; GI50 [36]: > 100 µM; TGI [36]: > 100 µM; GI50 [37]: > 100 µM; TGI [37]: > 100 µM; GI50 [38]: 37.3 µM; TGI [38]: > 100 µM; GI50 [39]: > 100 µM; TGI [39]: > 100 µM; GI50 [40]: 63.2 µM; TGI [40]: > 100 µM; GI50 [41]: 46.1 µM; TGI [41]: > 100 µM; GI50 [42]: > 100 µM; TGI [42]: > 100 µM; GI50 [43]: > 100 µM; TGI [43]: > 100 µM; GI50 [44]: 23.1 µM; TGI [44]: > 100 µM; GI50 [45]: > 100 µM; TGI [45]: > 100 µM; GI50 [46]: > 100 µM; TGI [46]: > 100 µM; GI50 [47]: 44.6 µM; TGI [47]: 93.4 µM; GI50 [48]: 1390 nM; TGI [48]: 64.8 µM; GI50 [49]: > 100 µM; TGI [49]: > 100 µM; GI50 [50]: 33.9 µM; TGI [50]: > 100 µM; GI50 [51]: > 100 µM; TGI [51]: > 100 µM; GI50 [52]: > 100 µM; TGI [52]: > 100 µM; GI50 [53]: > 100 µM; TGI [53]: > 100 µM; GI50 [54]: 37.5 µM; TGI [54]: > 100 µM; GI50 [55]: > 100 µM; TGI [55]: > 100 µM; GI50 [56]: > 100 µM; TGI [56]: > 100 µM

Reference: PubChem BioAssay (NCI)
